Read-outs that look alike come from different tables or passages of the source.
Assays:
EFO-27 cells = assay: Internalization/efflux studies in EFO-27 cells; type: cell-based, human
Protocol: Internalization/Efflux Studies: The internalization and efflux studies were carried out following the general procedure. Basically, ^177Lu-LHRH II or ^125I-LHRH II ([^125I-Tyr^8]BRU-2477) (75 uL, 3.0 μCi/mL) was added to the EFO-27 or PC-3 cells. The cells were incubated for 40 min at 37° C. The unbound radioactivity was washed off (4×). Following addition of fresh medium, the cells were further incubated for up to 2 h. At various time points (15, 30, 60 & 120 min) the distribution of radioactivity (membrane-bound, internalized, and efflux) was determined
The internalization and efflux of several Lu-177 labeled LHRH II analogs in EFO-27 cells have been investigated. Basically, following pre-incubation of cells with ^177Lu-LHRH II samples, the binding buffer containing the ^177Lu was replaced with fresh media without complex. The extent of initial internalization (T=0), the amount of radioactive material that remained internalized and the efflux at 0-120 min were determined. The results are shown in FIGS. 21a-f and 22a-c and in Table 25.

[1] = test system: LHRH binding sites on human ovarian cancer cells (EFO-27);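 also: Cell-associated radioactivity on confluent EFO-27 monolayers in 96-well plates, measured by microplate scintillation counting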
[2] = test system: EFO-27 human ovarian cancer cells (LHRH binding sites); assay: Direct binding/uptake of 177Lu-labeled LHRH-II analogs to EFO-27 cells; details: 177Lu-labeled analog, single concentration
Protocol: All reagents and chemicals were obtained from Sigma unless otherwise specified. LHRH analogs and ^177Lu-LHRH-II analogs were prepared by in-house chemists, as described elsewhere in the application. ^177Lu-LHRH-II analogs were not HPLC purified, as they had been prepared using formulation conditions that yielded high RCP without the need for purification. […] The HPLC-purified material was taken in a stabilizing buffer containing 5% lactose, 0.1% L-cysteine hydrochloride and 800 KIU/mL aprotinin and received as a lyophilized product and stored at −70° C. This was reconstituted in distilled water, aliquoted and stored at −70° C. The radioactivity was determined using Microplate Scintillation counter (Wallac Microbeta Trilux).
For the binding assay, EFO-27 cells were seeded onto 96-well clear flat-bottom tissue-culture-treated plates at 15,000/well density in the growth medium and used for assay on day 2 post-seeding. […]
Direct Binding: Direct binding studies were carried out by incubating appropriate ^177Lu-labeled compounds with EFO-27 cells at 4° C. for 1 h followed by washing off the unbound radioactivity. Non-specific binding was determined by incubating the ^177Lu-LHRH-II analogs in the presence of a large excess (30 uM) of cold (unlabeled) LHRH-II analogs. […]

[3] = Table 5: modifications of amino acids at positions 1 and 2, in vitro binding on EFO-27 cells

Question: For `N=C(N)NCCC[C@@H](NC(=O)[C@H](Cc1c[nH]cn1)NC(=O)[C@H](CO)NC(=O)[C@H](Cc1c[nH]c2ccccc12)NC(=O)[C@H](Cc1c[nH]cn1)NC(=O)[C@@H](Cc1ccc(CN)cc1)NC(=O)CN1CCN(CC(=O)O)CCN(CC(=O)O)CCN(CC(=O)O)CC1)C(=O)N[C@@H](Cc1c[nH]c2ccccc12)C(=O)N[C@@H](Cc1ccc(C(=O)c2ccccc2)cc1)C(=O)N1CCC[C@H]1C(=O)NNC(N)=O` [BRU-2757], which “Cell associated activity at 0 h % Efflux” value (EFO-27 cells; 0 h) is on record?
Answer: 12.4%

Question: And the “Cell associated activity at 0 h % Intern” value (EFO-27 cells; 0 h, internalized)?
Answer: 34.5%

Question: And the “Cell associated activity at 0 h % Memb” value (EFO-27 cells; 0 h, membrane bound)?
Answer: 54.3%

Question: And the “Cell associated activity at 2 h % Efflux” value (EFO-27 cells; 2 h)?
Answer: 79.5%

Question: What about the “Cell associated activity at 2 h % Intern” value (EFO-27 cells; 2 h, internalized) of the same compound?
Answer: 11.7%

Question: What about the “Cell associated activity at 2 h % Memb” value (EFO-27 cells; 2 h, membrane bound) of the same compound?
Answer: 8.8%

Question: What about the Bound % (EFO-27 cells; of added) of the same compound?
Answer: 9.50%

Question: And the Bound (EFO-27 cells; per well)?
Answer: 19.0 fmol

Question: And the EC50 [1]?
Answer: 0.26 µM

Question: How did the “177Lu-LHRH II Direct binding % Bound” value [2] turn out when `N=C(N)NCCC[C@@H](NC(=O)[C@H](Cc1c[nH]cn1)NC(=O)[C@H](CO)NC(=O)[C@H](Cc1c[nH]c2ccccc12)NC(=O)[C@H](Cc1c[nH]cn1)NC(=O)[C@@H](Cc1cccc2ccccc12)NC(=O)CN1CCN(CC(=O)O)CCN(CC(=O)O)CCN(CC(=O)O)CC1)C(=O)N[C@@H](Cc1c[nH]c2ccccc12)C(=O)N[C@@H](Cc1ccc(C(=O)c2ccccc2)cc1)C(=O)N1CCC[C@H]1C(=O)NNC(N)=O` [compound 2869] was run?
Answer: 9.20%

Question: What does the source list for `CN(CC(=O)N[C@@H](Cc1c[nH]cn1)C(=O)N[C@@H](Cc1c[nH]c2ccccc12)C(=O)N[C@@H](CO)C(=O)N[C@@H](Cc1c[nH]cn1)C(=O)N[C@H](CCCNC(=N)N)C(=O)N[C@@H](Cc1c[nH]c2ccccc12)C(=O)N[C@@H](Cc1ccc(C(=O)c2ccccc2)cc1)C(=O)N1CCC[C@H]1C(=O)NNC(N)=O)C(=O)c1ccc(NC(=O)CNC(=O)CN2CCN(CC(=O)O)CCN(CC(=O)O)CCN(CC(=O)O)CC2)cc1` [compound 2696]?
Answer: EC50 [1]: 0.44 µM; 177Lu-LHRH II Direct binding % Bound [2]: 0.94%

Question: How did the EC50 [1, 3] turn out when `N=C(N)NCCC[C@H](NC(=O)[C@@H]1Cc2c([nH]c3ccccc23)CN1C(=O)CNC(=O)CN1CCN(CC(=O)O)CCN(CC(=O)O)CCN(CC(=O)O)CC1)C(=O)N[C@@H](Cc1c[nH]c2ccccc12)C(=O)N[C@@H](CO)C(=O)N[C@@H](Cc1c[nH]cn1)C(=O)N[C@H](CCCNC(=N)N)C(=O)N[C@@H](Cc1c[nH]c2ccccc12)C(=O)N[C@@H](Cc1ccc(C(=O)c2ccccc2)cc1)C(=O)N1CCC[C@H]1C(=O)NNC(N)=O` [BRU-3053] was run?
Answer: 0.32 µM

Question: `N=C(N)NCCC[C@H](NC(=O)[C@@H](Cc1ccc2ccccc2c1)NC(=O)[C@H](CN)NC(=O)CN1CCN(CC(=O)O)CCN(CC(=O)O)CCN(CC(=O)O)CC1)C(=O)N[C@@H](Cc1c[nH]c2ccccc12)C(=O)N[C@@H](CO)C(=O)N[C@@H](Cc1c[nH]cn1)C(=O)N[C@H](CCCNC(=N)N)C(=O)N[C@@H](Cc1c[nH]c2ccccc12)C(=O)N[C@@H](Cc1ccc(C(=O)c2ccccc2)cc1)C(=O)N1CCC[C@H]1C(=O)NNC(N)=O` [compound 3096] was tested. Which EC50 [1] did it give?
Answer: 0.37 µM

Question: `N=C(N)NCCC[C@@H](NC(=O)[C@H](Cc1c[nH]cn1)NC(=O)[C@H](CO)NC(=O)[C@H](Cc1c[nH]c2ccccc12)NC(=O)[C@H](Cc1c[nH]cn1)NC(=O)[C@@H](Cc1cccc2ccccc12)NC(=O)CN1CCN(CC(=O)O)CCN(CC(=O)O)CCN(CC(=O)O)CC1)C(=O)N[C@@H](Cc1c[nH]c2ccccc12)C(=O)N[C@@H](Cc1ccc(C(=O)c2ccccc2)cc1)C(=O)N1CCC[C@H]1C(=O)NNC(N)=O` [BRU-2869] was tested. Which EC50 [1] did it give?
Answer: 0.36 µM

Question: How did the EC50 ([1]; read-out: EC50 μM, Underivatized LHRH peptides and LHRH peptides with chelator on N-terminus, EFO-27 cells) turn out when `N=C(N)NCCC[C@H](NC(=O)[C@H](Cc1c[nH]cn1)NC(=O)[C@H](CO)NC(=O)[C@H](Cc1c[nH]c2ccccc12)NC(=O)[C@H](CCCNC(=N)N)NC(=O)[C@@H](Cc1ccc2ccccc2c1)NC(=O)CN1CCN(CC(=O)O)CCN(CC(=O)O)CCN(CC(=O)O)CC1)C(=O)N[C@@H](Cc1c[nH]c2ccccc12)C(=O)N[C@@H](Cc1ccc(C(=O)c2ccccc2)cc1)C(=O)N1CCC[C@H]1C(=O)NNC(N)=O` [BRU-3031] was run?
Answer: 0.31 µM

Question: With `N=C(N)NCCC[C@@H](NC(=O)[C@H](Cc1c[nH]cn1)NC(=O)[C@H](CO)NC(=O)[C@H](Cc1c[nH]c2ccccc12)NC(=O)[C@@H](CCCNC(=N)N)NC(=O)[C@@H](Cc1ccc2ccccc2c1)NC(=O)CN1CCN(CC(=O)O)CCN(CC(=O)O)CCN(CC(=O)O)CC1)C(=O)N[C@@H](Cc1c[nH]c2ccccc12)C(=O)N[C@@H](Cc1ccc(C(=O)c2ccccc2)cc1)C(=O)N1CCC[C@H]1C(=O)NNC(N)=O` [BRU-3049] as the compound, how does the EC50 [1, 3] read?
Answer: 0.36 µM

Question: For `N=C(N)NCCC[C@H](NC(=O)[C@@H](Cc1ccc2ccccc2c1)NC(=O)CN1CCN(CC(=O)O)CCN(CC(=O)O)CCN(CC(=O)O)CC1)C(=O)N[C@@H](Cc1c[nH]c2ccccc12)C(=O)N[C@@H](Cc1ccc(CN)cc1)C(=O)N[C@@H](Cc1c[nH]cn1)C(=O)N[C@H](CCCNC(=N)N)C(=O)N[C@@H](Cc1c[nH]c2ccccc12)C(=O)N[C@@H](Cc1ccc(C(=O)c2ccccc2)cc1)C(=O)N1CCC[C@H]1C(=O)NNC(N)=O` [compound 3115], which EC50 [1] is on record?
Answer: 0.15 µM

Question: With `N=C(N)NCCC[C@H](NC(=O)[C@@H](Cc1ccc(O)cc1)NC(=O)CN1CCN(CC(=O)O)CCN(CC(=O)O)CCN(CC(=O)O)CC1)C(=O)N[C@@H](Cc1c[nH]c2ccccc12)C(=O)N[C@@H](CO)C(=O)N[C@@H](Cc1c[nH]cn1)C(=O)N[C@H](CCCNC(=N)N)C(=O)N[C@@H](Cc1c[nH]c2ccccc12)C(=O)N[C@@H](Cc1ccc(C(=O)c2ccccc2)cc1)C(=O)N1CCC[C@H]1C(=O)NNC(N)=O` [BRU-3054] as the compound, how does the EC50 [1, 3] read?
Answer: 0.43 µM

Question: `N=C(N)NCCC[C@H](NC(=O)[C@@H](Cc1ccc2ccccc2c1)NC(=O)CN1CCN(CC(=O)O)CCN(CC(=O)O)CCN(CC(=O)O)CC1)C(=O)N[C@@H](Cc1ccc2ccccc2c1)C(=O)N[C@@H](CO)C(=O)N[C@@H](Cc1c[nH]cn1)C(=O)N[C@H](CCCNC(=N)N)C(=O)N[C@@H](Cc1c[nH]c2ccccc12)C(=O)N[C@@H](Cc1ccc(C(=O)c2ccccc2)cc1)C(=O)N1CCC[C@H]1C(=O)NNC(N)=O` [compound 3105] was tested. Which EC50 [1] did it give?
Answer: 0.22 µM

Question: How did the EC50 [1] turn out when `CNCC(=O)N[C@@H](Cc1c[nH]cn1)C(=O)N[C@@H](Cc1c[nH]c2ccccc12)C(=O)N[C@@H](CO)C(=O)N[C@@H](Cc1c[nH]cn1)C(=O)N[C@H](CCCNC(=N)N)C(=O)N[C@@H](Cc1c[nH]c2ccccc12)C(=O)N[C@@H](Cc1ccc(C(=O)c2ccccc2)cc1)C(=O)N1CCC[C@H]1C(=O)NNC(N)=O` [BRU-2821] was run?
Answer: 0.4 µM

— patent US20120045393A1 (priority 2009, published 2012)
